Experimental data as given in BindingDB's records for doi:10.1038/sj.bjp.0701946 (Smithkline Beecham Pharmaceuticals, 1998).
pKi: −log10 of the molar value.

Sequences of proteins named here, by UniProt entry; tags and fusion partners are left off.
UniProt P34969, whole entry: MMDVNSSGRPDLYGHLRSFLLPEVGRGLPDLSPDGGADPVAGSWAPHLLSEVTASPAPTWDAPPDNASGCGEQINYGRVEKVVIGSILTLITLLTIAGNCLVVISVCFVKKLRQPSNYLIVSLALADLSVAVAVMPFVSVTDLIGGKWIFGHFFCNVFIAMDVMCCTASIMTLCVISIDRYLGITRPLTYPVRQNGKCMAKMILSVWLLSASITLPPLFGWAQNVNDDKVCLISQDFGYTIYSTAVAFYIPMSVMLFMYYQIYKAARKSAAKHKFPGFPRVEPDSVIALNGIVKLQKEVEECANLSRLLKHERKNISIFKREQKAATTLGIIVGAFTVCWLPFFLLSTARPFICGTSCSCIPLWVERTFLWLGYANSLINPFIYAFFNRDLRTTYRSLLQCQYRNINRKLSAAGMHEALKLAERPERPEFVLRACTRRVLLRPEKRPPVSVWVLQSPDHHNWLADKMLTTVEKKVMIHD

Target: 5-hydroxytryptamine receptor 7 (Homo sapiens, UniProt P34969)

In the case of `CCCN(CCC)C1CCc2cccc(O)c2C1` (stereo unspecified), the pKi was 6.60.
